# Binding of CDR-mutated scFvs to a peptide of the spike HR2 region

Target peptide (SARS-CoV-2 spike, HR2 region): PDVDLGDISGINAS

Each scFv is VH, a (GGGGS)3 linker, VL, as in the parent Ab-14, and differs from it in the CDRs of the light chain only.
VH: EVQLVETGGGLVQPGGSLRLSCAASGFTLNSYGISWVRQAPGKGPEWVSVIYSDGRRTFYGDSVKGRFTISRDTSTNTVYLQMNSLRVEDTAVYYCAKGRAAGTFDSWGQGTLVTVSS
VL: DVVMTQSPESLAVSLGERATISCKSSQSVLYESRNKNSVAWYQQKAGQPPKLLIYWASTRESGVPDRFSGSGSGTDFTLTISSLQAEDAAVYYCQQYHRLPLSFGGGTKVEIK

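The starting antibody came from a phage panning campaign against this peptide. The variants were designed computationally from a first round of random CDR variants and then made and measured. Their group label is 14L_GP_Gen (GP: Gaussian process model; Gen: genetic algorithm; a sequence that several methods proposed may carry one label only). AlphaSeq pools MATa yeast showing the antibodies with MATalpha yeast showing the peptide. After mating in shaken culture at 30 °C for 16 h, diploids were selected and their barcode pairs sequenced. A regression on co-assayed BCL2-family reference pairs converts the normalised counts of each replicate to an apparent Kd. The assay was run in six technical replicates.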

Sequences are complete VL domains.
The read-out is the apparent dissociation constant on a log10 scale (nM): the lower, the stronger.
Averages over replicates are reported, and they cover detected replicates only.
The authors averaged sequences with at least three values out of six and counted those with two or fewer as poor binders.
Of ten entries with the parent sequence, four were seen in most replicates (averages 0.34 to 2.37), three in one and three in none, so single entries are noisy.
Nonspecific signal, from three strains lacking the peptide, appeared in 4% of pairings of all light chain designs, centred on 2.64 (5% of these signals below 1.59); values are not corrected for it. The control count says in how many pairings with the empty strains this scFv gave a signal, with their mean in brackets.
The range of this assay differs from that of the first round, and the authors advise against merging the two.

VL | replicates, log10 nM | mean log10 Kd (nM) | control signals
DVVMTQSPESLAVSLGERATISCKLSGSVLYESRNKNSVAWYQQKAGQPPKLLIYGASTRESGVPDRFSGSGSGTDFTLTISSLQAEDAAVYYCQQYHRLPLSFGGGTKVEIK | 0.39 / 0.37 / 0.14 / -0.27 / 0.27 / 0.20 | 0.18 | 0 of 18
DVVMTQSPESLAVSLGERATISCHLSQSVLYESRNKNSVAWYQQKAGQPPKLLIYDASTRESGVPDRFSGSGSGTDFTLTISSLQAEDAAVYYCQQYHRLPLSFGGGTKVEIK | -0.28 / -0.36 / -0.41 / -0.64 / -0.41 / -0.33 | -0.41 | 0 of 18
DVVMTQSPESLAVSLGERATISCKLQQSVLYESRNKNSVAWYQQKAGQPPKLLIYNASQREDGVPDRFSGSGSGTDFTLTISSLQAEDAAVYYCQQYHRLPLSFGGGTKVEIK | -0.38 / -0.79 / -0.40 / -0.25 / -0.11 / -0.32 | -0.38 | 1 of 18 (1.45)
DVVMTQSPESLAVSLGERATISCKFSQSMLYESRNKNSVAWYQQKAGQPPKLLIYNASTRESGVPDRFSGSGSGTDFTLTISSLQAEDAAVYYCQQYHRLPLSFGGGTKVEIK | 0.22 / 0.84 / 0.62 / 0.42 / 0.52 / 0.17 | 0.47 | 0 of 18
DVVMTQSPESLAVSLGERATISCKVQQSVLYESRNKNSVAWYQQKAGQPPKLLIYNASTRSSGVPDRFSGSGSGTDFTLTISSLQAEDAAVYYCQQYHRLPLSFGGGTKVEIK | 0.17 / -0.29 / -0.05 / -0.19 / 0.01 / -0.31 | -0.11 | 1 of 18 (2.97)
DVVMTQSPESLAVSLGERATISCKLPQSVLYESRNKNSVAWYQQKAGQPPKLLIYHASTRLSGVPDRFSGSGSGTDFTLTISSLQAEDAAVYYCQQYHRLPLSFGGGTKVEIK | 0.45 / 0.03 / -0.08 / -0.19 / -0.09 / 0.25 | 0.06 | 1 of 18 (2.34)
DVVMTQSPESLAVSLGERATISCKLSQSWLYESRNKNNVAWYQQKAGQPPKLLIYHASQRESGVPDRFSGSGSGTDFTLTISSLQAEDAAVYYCQQYHRLPLSFGGGTKVEIK | 0.40 / 0.08 / -0.08 / 0.03 / 0.33 / 0.19 | 0.16 | 0 of 18
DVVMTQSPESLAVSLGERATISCKVSQSGLYESRNKNSVAWYQQKAGQPPKLLIYNASQRESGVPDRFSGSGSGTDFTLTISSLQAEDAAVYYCQQYHRLPLSFGGGTKVEIK | 0.19 / 0.14 / -0.01 / -0.10 / 0.06 / 0.18 | 0.08 | 3 of 18 (3.76)
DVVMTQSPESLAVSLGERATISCKVSQSELYESRNKNSVAWYQQKAGQPPKLLIYEASCRESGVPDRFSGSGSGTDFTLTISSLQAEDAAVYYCQQYHRLPLSFGGGTKVEIK | -0.53 / -0.30 / -0.52 / -0.63 / -0.41 / 0.05 | -0.39 | 1 of 18 (3.09)
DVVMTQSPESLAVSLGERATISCKLSQSGLYESRNKNSVAWYQQKAGQPPKLLIYNASTREQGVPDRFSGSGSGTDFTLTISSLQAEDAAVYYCQQYHRLPLSFGGGTKVEIK | -0.17 / -0.54 / -0.48 / -0.63 / -0.24 / -0.31 | -0.39 | 0 of 18
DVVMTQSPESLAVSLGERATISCKLSQSVLYESRMKNNVAWYQQKAGQPPKLLIYDASTRESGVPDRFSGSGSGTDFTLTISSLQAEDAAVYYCQQYHRLPLSFGGGTKVEIK | 0.37 / 0.40 / 0.21 / 0.25 / 0.27 / 0.35 | 0.31 | 0 of 18
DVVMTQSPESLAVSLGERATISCKVSQSVPYESRNKNSVAWYQQKAGQPPKLLIYNASTRESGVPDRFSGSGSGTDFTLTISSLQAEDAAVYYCQQYHRLPLSFGGGTKVEIK | 0.43 / 0.28 / 0.19 / 0.47 / 0.27 / 0.31 | 0.32 | 0 of 18
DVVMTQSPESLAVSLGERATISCKLPQSTGYESRNKNSVAWYQQKAGQPPKLLIYNASTRESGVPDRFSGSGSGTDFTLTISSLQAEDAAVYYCQQYHRLPLSFGGGTKVEIK | 0.22 / 0.12 / 0.23 / 0.11 / 0.18 / 0.20 | 0.18 | 2 of 18 (2.91)
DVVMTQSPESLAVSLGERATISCKFSQSVLYESRVKNSVAWYQQKAGQPPKLLIYDASTRESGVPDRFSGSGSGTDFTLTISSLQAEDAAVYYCQQYHRLPLSFGGGTKVEIK | 1.58 / 0.80 / 0.94 / 1.06 / 0.95 / 0.57 | 0.98 | 0 of 18
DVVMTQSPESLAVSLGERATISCKLSQSVLYESRNKNSVAWYQQKAGQPPKLLIYNASQRCSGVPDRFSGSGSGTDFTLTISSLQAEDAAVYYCQQYHRLPLSFGGGTKVEIK | 0.17 / 0.33 / 0.24 / 0.36 / 0.16 / 0.09 | 0.22 | 0 of 18
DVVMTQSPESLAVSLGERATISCKLSGSDLYESRNKNSVAWYQQKAGQPPKLLIYNASTRESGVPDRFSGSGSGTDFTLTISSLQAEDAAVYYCQQYHRLPLSFGGGTKVEIK | -0.49 / -0.45 / -0.66 / -0.65 / -0.63 / -0.42 | -0.55 | 0 of 18
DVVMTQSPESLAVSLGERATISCKLSQSVLYESRNKNNVAWYQQKAGQPPKLLIYEASTRESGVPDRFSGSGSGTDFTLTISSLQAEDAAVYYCQQYHRLPLSFGGGTKVEIK | 0.09 / 0.14 / 0.21 / 0.01 / 0.43 / 0.06 | 0.16 | 2 of 18 (3.07)
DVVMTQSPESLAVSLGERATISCKLSQSVLMESRNKNSVAWYQQKAGQPPKLLIYSASTRESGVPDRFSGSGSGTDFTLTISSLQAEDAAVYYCQQYHRLPLSFGGGTKVEIK | -0.04 / -0.24 / -0.30 / -0.15 / -0.38 / -0.13 | -0.21 | 0 of 18

Values reported by Li et al. 2023, doi:10.1038/s41467-023-39022-2 (FLAb copy).